# Measured values as given in patent US8735632B2, “Compounds” (DSM IP Assets B.V., priority 2009, dated 2014).
# Legend:
# [1] = Solubility in C12-15 alkyl benzoate: saturation of the solvent, content in the supernatant by HPLC; assay type: physicochemical; conditions: pure cosmetic solvent
# [2] = Solubility of BMDBM/BEMT in 1:1 (w/w) mixture C12-15 alkyl benzoate/PG-UVB, stored 1 month at RT, no re-crystallization; assay type: physicochemical
# [3] = Reduction of solvent necessary to dissolve solid UV-filter; assay type: physicochemical
# [4] = e.g. C12-15 alkyl benzoate or diisopropyl sebaceate; typical value; cited from earlier work
# [5] = C12-15 alkyl benzoate/PG-UVB 1:1 versus C12-15 alkyl benzoate
substance,measurement,setting,value
butyl methoxydibenzoylmethane [BMDBM],Solubility in C12-15 alkyl benzoate,[1],14 wt.-%
same,Δ solubility related to cosmetic solvent,[2]; C12-15 alkyl benzoate/PG-UVB 1:1,+13 wt.-%
same,Increase of solubility BMDBM/BEMT,[2]; [5],+43%
same,Δ solubility,[2]; [5],+6 wt.-%
same,amount of C12-15 alkyl benzoate necessary to solubilize 0.5 g BMDBM,[3]; pure C12-15 alkyl benzoate,3.0 g
same,amount of diisopropyl sebacate necessary to solubilize 0.5 g BMDBM,[3]; pure diisopropyl sebacate,2.0 g
same,solubility in the conventional cosmetic oils,[4],less than 20%
